Literature values in article PMC10810133, “Exploring the inhibitory potential of in silico-designed small peptides on Helicobacter pylori Hp0231 (DsbK), a periplasmic oxidoreductase involved in disulfide bond formation” (Frontiers in Molecular Biosciences, 2024).

By UniProt entry, the sequences of proteins in these tests, tags left out. Residues count along the entry.
UniProt P0AEG4, 20-208: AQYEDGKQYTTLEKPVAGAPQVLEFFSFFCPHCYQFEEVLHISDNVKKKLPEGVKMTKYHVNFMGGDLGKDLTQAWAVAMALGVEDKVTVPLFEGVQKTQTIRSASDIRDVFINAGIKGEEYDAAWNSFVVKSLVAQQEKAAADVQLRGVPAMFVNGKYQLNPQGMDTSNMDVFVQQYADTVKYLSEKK

Target: DsbA (Escherichia coli) (UniProt P0AEG4)
Details: cited from earlier work

Substance: DsbB P2 loop nonapeptide
- Kd: 4 µM
